## Antibody variant affinities, Ab-14 light chain, assay B

Target: peptide PDVDLGDISGINAS, taken from heptad repeat 2 (HR2) of SARS-CoV-2 spike.

Parent: Ab-14, a human scFv built as VH, the linker GGGGSGGGGSGGGGS, VL. Only the CDRs of the light chain vary.
VH: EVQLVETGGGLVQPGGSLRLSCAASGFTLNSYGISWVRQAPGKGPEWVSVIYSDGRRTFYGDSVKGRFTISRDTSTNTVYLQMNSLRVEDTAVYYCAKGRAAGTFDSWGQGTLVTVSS
VL: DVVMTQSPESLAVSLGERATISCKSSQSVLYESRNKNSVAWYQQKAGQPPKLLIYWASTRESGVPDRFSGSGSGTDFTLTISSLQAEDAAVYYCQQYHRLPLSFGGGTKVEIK

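The parent was found by panning a naive human phage display library on the peptide. The variants were designed computationally from a first round of random CDR variants and then made and measured. Group labels follow the data file (En: ensemble of fine-tuned language models; GP: Gaussian process model; HC: hill climbing; Gen: genetic algorithm; Gibbs: Gibbs sampling; a sequence that several methods proposed may carry one label only). Affinity was read by AlphaSeq, a pooled yeast mating assay with surface-displayed partners. After mating in shaken culture at 30 °C for 16 h, diploids were selected and their barcode pairs sequenced. Each replicate has its own calibration line, from reference interactions of the BCL2 family. Mating was done six times.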

Variants are written as CDR1, CDR2 and CDR3 of the light chain (limits as in the source). Parent: KSSQSVLYESRNKNSVA, WASTRES, QQYHRLPLS.
Variants here have more than six changes.
The read-out is the apparent dissociation constant on a log10 scale (nM): the lower, the stronger.
The mean shown is taken over the replicates in which the pair was detected.
An entry "no signal" has no value in the source: the pair was not observed among the diploids in any replicate. This suggests poor binding but is not conclusive.
The authors averaged sequences with at least three values out of six and counted those with two or fewer as poor binders.
Nonspecific signal, from three strains lacking the peptide, appeared in 4% of pairings of all light chain designs, centred on 2.64 (5% of these signals below 1.59); values are not corrected for it. For each scFv, signals with the empty controls are counted beside the result.
A sequence measured in both rounds can read differently, since the two assays cover different ranges.

CDR-L1	CDR-L2	CDR-L3	group	log10 Kd (nM), mean	seen in	empty controls
MVSQLMLWGLHAKNSIA	EAETRGN	QQYDRLPLI	En_Gen	1.82	3/6	0/18
KLSEIAHFESRKKNSVA	ENSTREA	QQYDHLPLS	En_HC	2.39	6/6	1/18
HLSDTVMQGSYYRQSVA	QESTRAD	QQYHRLPLS	En_HC	0.13	6/6	1/18
KLDPSDLGESRNKNAVA	QASTREI	QQYHRLPLS	GP_Gibbs	-0.10	6/6	1/18
KVSPSTWYESRNKNAVA	HASQRES	QQYHRLPLQ	GP_Gibbs	-0.27	6/6	0/18
KISGLYNFAQTNKNSIA	EMTTRED	QHYHRLPLS	En_HC	0.90	6/6	3/18
KLRFSVMGESRNKNSVA	SASTREW	QQYHRLPLS	GP_Gibbs	0.19	6/6	0/18
KFSQMDLYESRNGNNVA	DASTRSS	QQYHRLPLS	GP_Gibbs	-0.31	6/6	2/18
TIGQMFNGESRSRNSVA	QASTRES	QSYDRLPLS	En_HC	1.64	5/6	0/18
RIDDYPNMLGKNKESIA	EAALTLT	QQYARLPLS	En_Gibbs	0.94	6/6	1/18
KISYMGEIFSTNHSSIA	QASTREQ	QQYHRLPLS	En_HC	1.04	6/6	0/18
QIAETFMQVGIGANNIA	NATVRPA	QQYLRLPLM	En_Gibbs	-0.31	6/6	0/18
MLSDLVKMGVRNTNSVA	DNSTRGA	QQYDRLPLS	En_HC	1.41	6/6	1/18
KSMQSELDENRNDNSVA	SASTRLS	QQYHRLPLS	GP_Gibbs	0.00	6/6	0/18
MISQLYNMGQFAINSVA	QASLRNE	QQYDRLPLT	En_Gen	1.81	6/6	0/18
TIGQVMHYDSRNKNSVA	QTSTREE	QDYDRLPLS	En_HC	1.02	5/6	0/18
HITPSFMVESRLKNSVA	QTSTRES	QQYDRLPLS	En_HC	0.42	6/6	2/18
KISMLYNFASTNKNSIA	EMTTRED	QHYHRLPLS	En_HC	1.76	6/6	0/18
HMSAVTMLGMRQRNSVA	QMTTREN	QQYDRLPLA	En_Gen	0.79	6/6	2/18
TISMSVNMTSHGKNSVA	QAEMRES	QQYDRLPLS	En_HC	0.73	6/6	0/18
KITMSINLTFQASNNVA	EMATREQ	QQYNRLPLS	En_Gen	0.97	6/6	0/18
SLTIYTDENGLKHQSIA	GAGLRML	QQYHRLPLT	En_Gibbs	0.93	6/6	0/18
RLENQETEQIQHANSIA	DRDEVDS	QQYAHLPLS	En_Gibbs	2.78	1/6	0/18
KLSVSWLFETIEKNSVA	ERSTRES	QDYNRLPLS	En_HC	1.84	4/6	3/18
RLNDFQYAITGDNYAIA	NARETLM	QQYMRLPLT	En_Gibbs	1.22	5/6	2/18
TLTTVQGMESHNKNSVA	DLSTRGS	QQYHRLPLS	En_HC	0.29	6/6	0/18
TISTSALYESINKNSVA	ELSTRGQ	QQYERLPLS	En_HC	0.68	6/6	1/18
QVFFQLFEQGNRSNPIA	HESMRET	QQYAYLPLT	En_Gibbs	no signal	0/6	0/18
ILQQLMLYESRMKNSVA	NASQRWS	QQYHRLPLS	GP_Gibbs	0.49	6/6	2/18
MFSQLFMYGSRNYNSVA	QASTREN	QQYDRLPLI	En_HC	1.60	6/6	0/18
KLQQSNLYESRNKNNVA	EATLREQ	QQYHRLPLS	GP_Gibbs	-0.51	6/6	1/18
HMSMLTLMGSRQRNSVA	QMTTREN	QQYDRLPLM	En_Gen	0.72	6/6	0/18
KLLQSVQYGSRALNSVA	QMETRED	QQYHRLPLS	En_HC	0.66	6/6	1/18
TIAQSMLYLSNLKNSIA	QAETREP	QQYHRLPIS	En_HC	1.15	6/6	0/18
KISTMVRVGSTHKNSIA	EEATRSD	QQYHRLPLA	En_Gen	1.78	4/6	0/18
NVNVSEDQWPSSKNAIA	QTTCRVL	QQYAHLPLS	En_Gibbs	0.63	6/6	0/18
SVTRYTDENGLKMSSIA	GAGNRMT	QQYHRLPLT	En_Gibbs	1.62	2/6	0/18
NISHFMDVTAKHNNNVA	EMTMREE	QQYHHLPLS	En_Gen	1.26	6/6	1/18
KLSQVTRYESRNKNSIA	EMVTREK	QQYDRLPLS	En_HC	1.51	6/6	0/18
TISQMSTLFSQSINNVA	EVSTREE	QQYDRLPLA	En_Gen	0.84	6/6	0/18
TISQMTSLFSQSINNVA	EVSMREE	QQYDRLPLM	En_Gen	1.12	6/6	1/18
KLQMLELQESRWCNSVA	QASTREE	QQYHRLPLS	GP_Gibbs	1.20	6/6	2/18
QLYAVQDMTSKNKNSVA	EQSTREN	QQYDRLPLS	En_HC	1.87	5/6	0/18
KINERMRSGENQQHSIA	NATEIVK	QQYHNLPLG	En_Gibbs	1.96	6/6	2/18
ALSQVMDMTSRNKNSVA	DLSTREN	QQYHRLPLS	En_HC	0.00	6/6	1/18
TLMHHQGRYDVWKESIA	EASIRAS	QQYQRLPLA	En_Gibbs	1.13	6/6	2/18
KMENSNGYESRNKNSVA	NASTRMS	QQYHRLPLS	GP_Gibbs	0.21	6/6	4/18
KLGQMTGIESHAKNSLA	DANRRED	QQYHRLPLS	En_HC	0.30	6/6	0/18
SLMQVGGYESNAKNSIA	DLRTRES	QQYHRLPLS	En_HC	0.37	6/6	0/18
HVSSMLMAGGGIYNSVA	GNKLLER	QQYMRLPLS	En_Gibbs	1.41	4/6	0/18
KLGQSVNYLSRVMNSVA	DNSTRES	QQYFRLPLS	En_HC	-0.51	6/6	0/18
NIVEDEAGDQKNSQNIA	SVDQRED	QQYQKLPLM	En_Gibbs	-0.15	6/6	0/18
KLDQSGGYGSRNKNSVA	HASYRES	QQYHRLPLY	GP_Gibbs	1.54	6/6	1/18
MVNTNLVHQANRDNNIA	EADMVAA	QDYDRLPLI	En_Gibbs	2.10	5/6	2/18
TVSQVHEMLSHNKNSVA	DMNTRER	QQYDRLPLS	En_HC	0.63	6/6	0/18
QLGKNQDGDTLSQNAIA	HDALLVD	QQYFRLPLL	En_Gibbs	1.06	6/6	2/18
KMSQSWLYESQNSNSVA	HASQRMS	QQYHRLPLS	GP_Gibbs	-0.03	6/6	0/18
NISIHGMDENSTRNHIA	DTNCRDF	QQYWHLPLS	En_Gibbs	0.68	6/6	3/18
IVSQLMLWGYHAKNSIA	EAQTRLN	QQYDRLPLM	En_Gen	1.23	4/6	0/18
QLAVERGQEWKAGAAIA	GNTEKLH	QQYAMLPLS	En_Gibbs	1.50	6/6	0/18
KLSQSWGMESRNKNQVA	HASTRMS	QQYHRLPLS	GP_Gibbs	1.37	6/6	1/18
KLSMTYRYESQEKNSIA	EMSTREE	QSYHRLPLS	En_HC	1.69	3/6	0/18
KIGMTLNQLMQKKNNVA	DLVTREQ	QQYHRLPLS	En_Gen	-0.08	6/6	0/18
KLMTSDLYESRMVNAVA	EASTRMD	QQYHRLPLS	GP_Gibbs	1.36	6/6	1/18
MISQLTNMGTFAINSVA	QASIRNS	QQYDRLPLM	En_Gen	1.58	6/6	0/18

The opening 5 entries, copied out:

CDR-L1	CDR-L2	CDR-L3	group	log10 Kd (nM), mean	seen in	empty controls
MVSQLMLWGLHAKNSIA	EAETRGN	QQYDRLPLI	En_Gen	1.82	3/6	0/18
KLSEIAHFESRKKNSVA	ENSTREA	QQYDHLPLS	En_HC	2.39	6/6	1/18
HLSDTVMQGSYYRQSVA	QESTRAD	QQYHRLPLS	En_HC	0.13	6/6	1/18
KLDPSDLGESRNKNAVA	QASTREI	QQYHRLPLS	GP_Gibbs	-0.10	6/6	1/18
KVSPSTWYESRNKNAVA	HASQRES	QQYHRLPLQ	GP_Gibbs	-0.27	6/6	0/18

From the AlphaSeq antibody data of Li et al. 2023 (doi:10.1038/s41467-023-39022-2), copy in the FLAb collection.